## Measured affinities in a library of Ab-14 heavy chain variants

Target: peptide PDVDLGDISGINAS, taken from heptad repeat 2 (HR2) of SARS-CoV-2 spike.

The variants keep the light chain, the linker and the frameworks of Ab-14 (scFv order VH, the linker GGGGSGGGGSGGGGS, VL).
VH: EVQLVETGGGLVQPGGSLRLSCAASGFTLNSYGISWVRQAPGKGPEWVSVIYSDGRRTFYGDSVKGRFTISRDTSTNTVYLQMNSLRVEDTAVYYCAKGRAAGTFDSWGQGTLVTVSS
VL: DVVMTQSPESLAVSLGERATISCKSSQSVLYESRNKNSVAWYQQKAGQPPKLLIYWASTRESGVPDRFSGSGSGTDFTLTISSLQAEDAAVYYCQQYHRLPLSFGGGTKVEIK

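The starting antibody came from a phage panning campaign against this peptide. These sequences belong to a second round, designed from the earlier measurements on random variants of the parent. Several design methods are mixed in this list. The scFvs were displayed on barcoded MATa yeast, the peptide on MATalpha yeast. Mating (16 h, 30 °C) was followed by selection of diploids and sequencing of their barcodes. Read counts were normalised to the haploid input and turned into Kd by a linear fit to BCL2-family pairs of known affinity, for each replicate. There are six technical replicates.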

Changes read parent residue, position, new residue, counted from the first residue of the VH shown. This list holds designs with at most six substitutions. The Kd shown is the geometric mean over detected replicates; a lower Kd is a better binder. A pair that was not seen in any replicate is written "no signal"; this usually means weak binding, but a binder can also be missed.

- T28D R100N A101E S107T: 3.2 nM (6 of 6 replicates; controls 0 of 18)
- S31D G61H: 1.9 nM (2 of 6 replicates; controls 0 of 18)
- S31D A101T S107I: 1.5 nM (6 of 6 replicates; controls 1 of 18)
- S31E D62C G103V S107Q: no signal (0 of 6 replicates; controls 0 of 18)
- N30G R56E G61I R100A: 37 nM (6 of 6 replicates; controls 0 of 18)
- G26H G61D A102K: 100 nM (1 of 6 replicates; controls 1 of 18)
- T28Q A101T S107M: 3.0 nM (6 of 6 replicates; controls 0 of 18)
- R56K S63K R100E: 1.5 nM (1 of 6 replicates; controls 0 of 18)
- G26K T28Q R56K G61A A101N: 570 nM (2 of 6 replicates; controls 0 of 18)
- T28S R100H A101E: 570 pM (6 of 6 replicates; controls 0 of 18)
- T28S S31E G61W A101T: 1.3 nM (2 of 6 replicates; controls 0 of 18)
- D62G S107T: no signal (0 of 6 replicates; controls 0 of 18)
- T28S R100N S107T: 2.3 nM (6 of 6 replicates; controls 0 of 18)
- S35T R100S A101R G103V T104M: 630 pM (1 of 6 replicates; controls 0 of 18)
- S53A G99T F105N D106K: no signal (0 of 6 replicates; controls 0 of 18)
- T28S S31E D106C S107V: no signal (0 of 6 replicates; controls 0 of 18)
- F27E S31E G103V S107Q: no signal (0 of 6 replicates; controls 0 of 18)
- T28Y S53A D62V F105N D106K: no signal (0 of 6 replicates; controls 0 of 18)
- F59A G61D S107L: 41 nM (4 of 6 replicates; controls 0 of 18)
- T28D S107Q: 6.0 nM (11 of 12 replicates; controls 0 of 36)
- T28S R100H A101I: 2.3 nM (6 of 6 replicates; controls 2 of 18)
- T28E R100Q A101T S107Q: 3.7 nM (6 of 6 replicates; controls 0 of 18)
- T28S S31M R100Q: 23 nM (6 of 6 replicates; controls 0 of 18)
- T28S S63D R100K A101T: 1.4 nM (6 of 6 replicates; controls 0 of 18)
- T28Y S53A R100K: 11 nM (6 of 6 replicates; controls 0 of 18)
- D54C G99A F105W S107T: no signal (0 of 6 replicates; controls 0 of 18)
- G61A: 13 nM (6 of 6 replicates; controls 1 of 18)
- T28D G61I S63A R100K: 6.9 nM (5 of 6 replicates; controls 0 of 18)
- T28S R100Q A101T S107G: 28 nM (3 of 6 replicates; controls 0 of 18)
- T28E G61S A101Q S107T: 1.2 nM (1 of 6 replicates; controls 0 of 18)
- T28E G61A R100K A101E S107N: 1.3 nM (6 of 6 replicates; controls 0 of 18)
- N30E S107K: 530 nM (3 of 6 replicates; controls 1 of 18)
- T28N A102S D106E: 31 nM (1 of 6 replicates; controls 0 of 18)
- G26T K65V: no signal (0 of 6 replicates; controls 0 of 18)
- T28N S63Q A101I: 11 nM (6 of 6 replicates; controls 1 of 18)
- T28E G61A S63Q R100T A101T: 1.5 nM (6 of 6 replicates; controls 1 of 18)
- T28S S31E G61A A101L: 240 pM (6 of 6 replicates; controls 0 of 18)
- S63G R100N A101E S107T: 5.9 nM (4 of 6 replicates; controls 0 of 18)
- R56Q G61S S63A R100E: 8.9 nM (6 of 6 replicates; controls 0 of 18)
- T28N S53A G55M: 34 nM (1 of 6 replicates; controls 0 of 18)
- G26W T28N G61A R100N A101E: 18 nM (5 of 6 replicates; controls 0 of 18)
- N30D S53A A102P: 580 pM (6 of 6 replicates; controls 0 of 18)

The first 4 variants above that were never detected:

changes,Kd,seen in,signal with controls
S31E D62C G103V S107Q,no signal,0 of 6,0 of 18
D62G S107T,no signal,0 of 6,0 of 18
S53A G99T F105N D106K,no signal,0 of 6,0 of 18
T28S S31E D106C S107V,no signal,0 of 6,0 of 18

Of ten entries with the parent sequence, four were seen in most replicates (averages 2.2 nM to 240 nM), three in one and three in none, so single entries are noisy. The authors' rule: three or more of the six replicates give a measured affinity, fewer mean a poor binder. The range of this assay differs from that of the first round, and the authors advise against merging the two. Where one sequence has several entries in the source, the replicates are pooled. Background: pairings of all heavy chain designs with three empty control strains gave a value in 1% of cases (median 120 nM, 5th percentile 7.0 nM). Values in that range, when seen in few replicates, are hard to tell from nonspecific mating. Also given: how often the same scFv was detected with the empty control strains.

Data: MIT Lincoln Laboratory AlphaSeq set, Li et al. 2023, doi:10.1038/s41467-023-39022-2, as distributed in FLAb.